Reference: BindingDB's records for doi:10.1124/jpet.106.103382 (Wyeth Research, 2006)
Values joined by “and” are separate entries in the source; they are usually repeats but may differ in a detail not shown here. Identical values can stand only once.

Amino acid sequences for entries named in this document (tags omitted).
UniProt Q01959, whole entry: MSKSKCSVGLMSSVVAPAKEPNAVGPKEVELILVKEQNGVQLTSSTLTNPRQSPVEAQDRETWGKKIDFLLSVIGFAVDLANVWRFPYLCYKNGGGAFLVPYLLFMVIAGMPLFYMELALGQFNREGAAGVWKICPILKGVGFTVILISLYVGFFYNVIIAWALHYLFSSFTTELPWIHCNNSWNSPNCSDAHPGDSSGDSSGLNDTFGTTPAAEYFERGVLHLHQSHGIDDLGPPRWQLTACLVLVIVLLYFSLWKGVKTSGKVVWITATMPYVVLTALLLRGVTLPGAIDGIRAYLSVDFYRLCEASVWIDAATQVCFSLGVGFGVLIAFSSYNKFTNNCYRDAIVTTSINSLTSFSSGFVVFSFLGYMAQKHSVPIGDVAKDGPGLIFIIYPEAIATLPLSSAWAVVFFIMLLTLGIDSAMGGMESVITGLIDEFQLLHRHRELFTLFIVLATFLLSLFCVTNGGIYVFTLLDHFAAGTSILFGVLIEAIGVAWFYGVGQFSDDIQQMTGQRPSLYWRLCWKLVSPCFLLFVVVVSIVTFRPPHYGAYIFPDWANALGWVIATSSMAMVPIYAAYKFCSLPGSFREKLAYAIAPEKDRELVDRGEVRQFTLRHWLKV
UniProt P31645, whole entry: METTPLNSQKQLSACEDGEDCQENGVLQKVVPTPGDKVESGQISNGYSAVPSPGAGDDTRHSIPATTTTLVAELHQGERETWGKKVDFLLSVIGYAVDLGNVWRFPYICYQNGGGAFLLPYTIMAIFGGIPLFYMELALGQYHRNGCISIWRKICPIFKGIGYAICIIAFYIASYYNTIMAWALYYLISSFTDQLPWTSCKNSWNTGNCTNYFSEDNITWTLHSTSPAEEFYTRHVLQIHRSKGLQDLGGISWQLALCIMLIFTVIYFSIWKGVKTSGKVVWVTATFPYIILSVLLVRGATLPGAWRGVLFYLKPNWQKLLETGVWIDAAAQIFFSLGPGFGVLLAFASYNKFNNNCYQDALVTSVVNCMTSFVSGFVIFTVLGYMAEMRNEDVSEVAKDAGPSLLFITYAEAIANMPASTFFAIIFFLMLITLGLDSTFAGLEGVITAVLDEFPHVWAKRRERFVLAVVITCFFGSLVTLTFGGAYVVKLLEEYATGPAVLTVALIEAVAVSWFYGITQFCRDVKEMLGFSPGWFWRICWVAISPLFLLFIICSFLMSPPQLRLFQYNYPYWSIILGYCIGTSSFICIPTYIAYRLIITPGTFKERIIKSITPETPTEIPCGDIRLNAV
UniProt P23975, whole entry: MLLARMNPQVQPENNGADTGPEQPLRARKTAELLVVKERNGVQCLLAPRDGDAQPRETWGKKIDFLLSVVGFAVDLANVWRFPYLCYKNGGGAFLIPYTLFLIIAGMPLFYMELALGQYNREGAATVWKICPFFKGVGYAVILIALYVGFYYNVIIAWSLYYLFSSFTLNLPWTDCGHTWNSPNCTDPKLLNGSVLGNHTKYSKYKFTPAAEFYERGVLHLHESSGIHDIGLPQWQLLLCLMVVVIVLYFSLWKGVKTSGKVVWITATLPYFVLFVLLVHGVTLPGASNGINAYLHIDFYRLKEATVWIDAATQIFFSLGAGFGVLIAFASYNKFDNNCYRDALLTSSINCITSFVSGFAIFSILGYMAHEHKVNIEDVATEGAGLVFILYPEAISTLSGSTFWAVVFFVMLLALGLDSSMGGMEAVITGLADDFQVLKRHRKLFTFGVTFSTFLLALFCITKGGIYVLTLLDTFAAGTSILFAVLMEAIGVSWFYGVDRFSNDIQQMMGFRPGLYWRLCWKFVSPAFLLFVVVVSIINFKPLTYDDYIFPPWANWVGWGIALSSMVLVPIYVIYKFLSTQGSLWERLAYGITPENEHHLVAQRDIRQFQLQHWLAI

What was measured:
[1] = target: Sodium-dependent dopamine transporter (Homo sapiens, UniProt Q01959)
[2] = target: Sodium-dependent serotonin transporter (Homo sapiens, UniProt P31645)
[3] = target: Sodium-dependent noradrenaline transporter (Homo sapiens, UniProt P23975)

CN(C)CC(c1ccc(O)cc1)C1(O)CCCCC1 (stereo not drawn) [CAS_386750-22-7]
Ki [1]: > 10000 nM | Ki [2]: 47.3 nM | Ki [3]: 558 nM and 3390 nM and 531 nM
